system: female mice of ddN strain; test: Phenylquinone method (analgesic activity, chemical pain); format: in vivo, mouse; details: p.o., drug 30 minutes before challenge

Point of comparison: `CN(C)C(Cc1ccccc1)c1ccccc1` (stereo not shown), “Phenylquinone method (analgesic activity)” value 52.3. Against it:
- COc1ccccc1N1CCN(C(Cc2ccc(C)cc2)c2ccccc2)CC1 (racemic) — lower, 49.4
- COc1ccc(CC(c2ccccc2)N2CCN(c3ccccc3OC)CC2)cc1 (racemic) — lower, 38.5
- COc1ccccc1N1CCN(C(Cc2ccc(Cl)cc2)c2ccccc2)CC1 (racemic) — higher, 83

— patent US3957788A (priority 1974, dated 1976)
